According to PubChem BioAssay (Tox21):
Several values for one entry are separate records, joined by “and”; a condition that tells them apart may be missing. Identical values can stand only once. The entries are a selection whose mix differs from that of the whole data set. Records with an inconclusive call do not appear. Activity calls are given as the source filed them. Calls come from the whole dose curve; as a rule, active = well fitted cell-killing curve with a large enough effect in the repeat runs; inconclusive = weak or mixed curves, or effect the other way; inactive = flat fitted curve, though single readings scatter.

Assay: qHTS RealTime-Glo MT Cell Viability Assay in HEK293 cells - 24 hour (AID 1224886); note: top concentration of the series differs between compounds; nearly all actives have a fitted effect of over 50% in size
Conditions: RealTime-Glo luminescence, at 35.3 µM (top of the series)
Excerpt: National Center for Advancing Translational Sciences [NCATS]
NIH Chemical Genomics Center [NCGC]
U.S. Environmental Protection Agency [EPA]
National Institutes of Environmental Health Sciences [NIEHS]
National Toxicology Program [NTP]
U.S. Food and Drug Administration [FDA]
Measure of cell viability is critical in the cell-base assay. Analysis of cell viability is necessary for the characterization of cell responses to cytotoxic drugs and environmental stress. A RealTime-Glo MT Cell Viability Assay to monitor cell viability in real time of continues cell culture during 40 hours of compound treatment was used to screen Tox21 10K library compounds in Hek293 cells. The RealTime-Glo MT Cell Viability Assay is a nonlytic, homogeneous, bioluminescent method to measure cell viability in real time using a simple, plate-based method. The assay involves adding NanoLuc luciferase and a cell-permeant prosubstrate to cells in culture. Viable cells reduce the proprietary prosubstrate to generate a substrate for NanoLuc luciferase. This substrate diffuses from cells into the surrounding culture medium, where it is rapidly used by the NanoLuc Enzyme to produce a luminescent signal. The signal correlates with the number of viable cells, making the assay well suited for cytotoxicity studies.
Tox21 Assay Protocol Summary:
The mixture of Hek293 cell suspension and reagents were dispensed at 600cells/6 ul/well in 1536-well tissue culture treated black solid bottom plates using a Multidrop dispenser. After the assay plates were incubated at a 37 C/5% CO2 incubator for 5 hours, 23 nL of compounds dissolved in DMSO, positive and negative controls was transferred to the assay plate by a pintool work station. The plates were incubated at 37 C for 40 hours. The luminescence intensity were measured at 0h, 8h, 16h, 24h, 32h and 40h time points using ViewLux plate reader during compound treatment.
% is set by controls: 0 for no effect and ±100 for the full control effect.

Question: For `OCCSCCO`, which activity change, negative = cytotoxicity is on record?
Answer: The activity change, negative = cytotoxicity was inactive: -1.04%.

Question: For `CCOP(=O)(CC)Oc1ccc([N+](=O)[O-])cc1` (stereo not drawn), which activity change, negative = cytotoxicity is on record?
Answer: The activity change, negative = cytotoxicity was inactive: -7.23%.

Question: For `C/C1=C2N=C(/C=C3N=C(/C(C)=C4\[N-][C@@](C)([C@@H]5N=C1[C@](C)(CCC(=O)NC[C@@H](C)OP(=O)([O-])O[C@H]1[C@@H](O)[C@@H](n6cnc7cc(C)c(C)cc76)O[C@@H]1CO)[C@H]5CC(N)=O)[C@@](C)(CC(N)=O)[C@@H]4CCC(N)=O)[C@@](C)(CC(N)=O)[C@@H]\3CCC(N)=O)C(C)(C)[C@@H]/2CCC(N)=O.[C-]#N.[Co+3]`, which activity change, negative = cytotoxicity is on record?
Answer: Its activity change, negative = cytotoxicity is inactive: -9.48%.

Same assay, conditions: RealTime-Glo luminescence, at 76.8 µM (top of the series)

Question: For `CCN(CC)CCCl`, which activity change, negative = cytotoxicity is on record?
Answer: The activity change, negative = cytotoxicity was inactive: 8.26%.

Question: Which activity change, negative = cytotoxicity does the source give for `[NH4+].[O-][Cl+3]([O-])([O-])[O-]` here?
Answer: Its activity change, negative = cytotoxicity is inactive: -1.94% and inactive: 2.47%.

Question: For `Cc1ccc([N+](=O)[O-])cc1[N+](=O)[O-]`, which activity change, negative = cytotoxicity is on record?
Answer: The activity change, negative = cytotoxicity was inactive: 1.81% and inactive: 0.0162%.

Question: Which activity change, negative = cytotoxicity does the source give for `N=C(N)N[N+](=O)[O-]` here?
Answer: Its activity change, negative = cytotoxicity is inactive: -5.43%.

Question: For `O=[N+]([O-])OCC(CO[N+](=O)[O-])(CO[N+](=O)[O-])CO[N+](=O)[O-]`, which activity change, negative = cytotoxicity is on record?
Answer: The activity change, negative = cytotoxicity was inactive: 5.84%.

Question: For `OCCSCCO`, which activity change, negative = cytotoxicity is on record?
Answer: Its activity change, negative = cytotoxicity is inactive: -7.36%.

Question: Which activity change, negative = cytotoxicity does the source give for `COP(C)(=O)OC` here?
Answer: The activity change, negative = cytotoxicity was inactive: 3.54% and inactive: 1.73%.

Question: With `O=[N+]([O-])[O-].[NH4+]` as the molecule, how does the activity change, negative = cytotoxicity read?
Answer: Its activity change, negative = cytotoxicity is inactive: 0.861% and inactive: 0.564%.

Question: With `CC(C)N(CCO)C(C)C` as the molecule, how does the activity change, negative = cytotoxicity read?
Answer: The activity change, negative = cytotoxicity was inactive: -0.0451%.

Question: With `CC(C)OP(C)(=O)OC(C)C` as the molecule, how does the activity change, negative = cytotoxicity read?
Answer: The activity change, negative = cytotoxicity was inactive: 11.3%.

Question: Which activity change, negative = cytotoxicity does the source give for `COc1ccc([N+](=O)[O-])cc1[N+](=O)[O-]` here?
Answer: The activity change, negative = cytotoxicity was inactive: 0.744%.

Question: Which activity change, negative = cytotoxicity does the source give for `N#CBr` here?
Answer: The activity change, negative = cytotoxicity was inactive: 10.8%.

Question: For `CCOP(=O)(CC)OCC`, which activity change, negative = cytotoxicity is on record?
Answer: Its activity change, negative = cytotoxicity is inactive: 5.36%.

Question: Which activity change, negative = cytotoxicity does the source give for `CP(=O)(O)OCCC[Si](O)(O)O` here?
Answer: The activity change, negative = cytotoxicity was inactive: -3.41%.

Question: With `CN(C)CCCl` as the molecule, how does the activity change, negative = cytotoxicity read?
Answer: Its activity change, negative = cytotoxicity is inactive: 4.1%.
